Patent publication US20240116898A1, “NOVEL GLUTAMINYL CYCLASE INHIBITORS AND THE USE THEREOF IN TREATMENT OF VARIOUS DISEASES” (LTD "VALENTA-INTELLEKT", priority 2017, published 2024)
Where two headings read alike, the source gives them in different places.

Assays:
[1] = tested on: thermal pain irritation hot plate in Balb/c mice
[2] = tested on: imiquimod-induced psoriasis in Balb/c mice; conditions: 0.3 mg/kg intragastric daily
[3] = tested on: non-infectious pneumonia induced by cigarette smoke extract in mice; conditions: 0.3 mg/kg intragastric daily day 7-27
[4] = tested on: specific pain reaction by chemical irritation of the peritoneum in Balb/c mice; assay: Abdominal constriction test (acetic acid) in mice
[5] = tested on: atopic dermatitis in balb/c mice; conditions: 3 mg/kg intragastric day 8-17
[6] = tested on: formaldehyde-induced pharyngitis in rats; assay: Rat model of non-infectious pharyngitis (Evans blue exudation); conditions: 18 mg/kg intragastric 24 h and 1 h before formaldehyde
[7] = tested on: elastase-induced pulmonary emphysema in mice; conditions: 3 mg/kg in table (0.3 mg/kg in text), day 21
[8] = tested on: allergic rhinitis in guinea pigs; assay: Guinea pig model of allergic rhinitis (ovalbumin)
[9] = tested on: sephadex-induced bronchitis in rats
[10] = tested on: bronchial asthma model in guinea pigs; conditions: 0.14-14 mg/kg intragastric daily for 10 days, FIG. 1
[11] = tested on: COPD model in guinea pigs
[12] = 0.3 mg/kg intragastric 1 hour before acetic acid

In the case of `O=C(NCCc1cnc[nH]1)C(=O)NCCc1cnc[nH]1` [Compound I, N,N′-bis[2-(1H-imidazol-4-yl)ethyl]oxalamide], the “The threshold of pain sensitivity (TPS), after 1 hour” value (“The threshold of pain sensitivity” below) ([1]; 0.3 mg/kg intragastric) was 101.13 ± 9.64 % to the background, the “The threshold of pain sensitivity” value ([1]; 3 mg/kg intragastric) was 95.28 ± 6.79 % to the background and the “The threshold of pain sensitivity” value ([1]; 30 mg/kg intragastric) was 104.55 ± 8.52 % to the background. For the same compound, the “The gain of the thickness of the affected ear to day 0” value (“The gain” for short) ([2]; Day 3) was 38.3 ± 5.8 %, the “The gain” value ([2]; Day 4) was 45.2 ± 4.1*& % and the “The gain” value ([2]; Day 5) was 57.3 ± 3.9*& %. For the same compound, the “The gain” value ([2]; Day 6) was 62.8 ± 5.4*& %, the “Alveolitis (DI, %)” value [3] was 17.70 ± 2.00*& % and the Interstitial pneumonia [3] was 1.08 ± 0.26 points. For the same compound, the Peribronchitis [3] was 1.09 ± 0.24 points, the Perivasculitis [3] was 0.38 ± 0.13& points and the “Quantity of constrictions for 15 minutes” value ([4]; 0.03 mg/kg intragastric 1 hour before acetic acid) was 22.70 ± 2.14. The “Quantity of constrictions for 15 minutes” value [4, 12] was 13.90 ± 2.23, the “Quantity of constrictions for 15 minutes” value ([4]; 3 mg/kg intragastric 1 hour before acetic acid) was 18.65 ± 2.44 and the “Quantity of constrictions for 15 minutes” value ([4]; 30 mg/kg intragastric 1 hour before acetic acid) was 21.15 ± 2.97. The Reaction index [5] was 25.4 ± 10.2*#& %, the “The difference between the mass of the experiment and control ear” value [5] was 0.007 ± 0.003#& mg and the “The concentration of the dye in the tissue” value [6] was 0.022 ± 0.003& μg/mg. For the same compound, the “Area of extended emphysematous lung tissue, lower pulmonary field” value [7] was 35.28 ± 5.81 % of normal, the “Area of extended emphysematous lung tissue, medium pulmonary field” value [7] was 37.09 ± 5.86 % of normal and the “Area of extended emphysematous lung tissue, top pulmonary field” value [7] was 11.76 ± 1.48 % of normal. The “A quantity of scratchings of the nose/2 hours” value ([8]; 0.14 mg/kg intragastric once) was 37.3 ± 7.8*& /2 hours, the “A quantity of sneezes/2 hours” value ([8]; 0.14 mg/kg intragastric once) was 9.3 ± 1.7 /2 hours and the “A quantity of scratchings of the nose/2 hours” value ([8]; 1.4 mg/kg intragastric once) was 41.0 ± 12.0 /2 hours. For the same compound, the “A quantity of sneezes/2 hours” value ([8]; 1.4 mg/kg intragastric once) was 12.1 ± 1.5 /2 hours, the “Eosinophils in 1 μl of the BAL” value ([9]; 0.18 mg/kg intragastric) was 0 ± 0& in 1 μl and the “Leukocytes in 1 μl of the BAL” value ([9]; 0.18 mg/kg intragastric) was 3833 ± 525 in 1 μl. For the same compound, the “Lymphocytes in 1 μl of the BAL” value ([9]; 0.18 mg/kg intragastric) was 0 ± 0 in 1 μl, the “Macrophages in 1 μl of the BAL” value ([9]; 0.18 mg/kg intragastric) was 3127 ± 351 in 1 μl and the “Neutrophils in 1 μl of the BAL” value ([9]; 0.18 mg/kg intragastric) was 283 ± 75& in 1 μl. The “Eosinophils in 1 μl of the BAL” value ([9]; 1.8 mg/kg intragastric) was 0 ± 0& in 1 μl, the “Leukocytes in 1 μl of the BAL” value ([9]; 1.8 mg/kg intragastric) was 4133 ± 454 in 1 μl and the “Lymphocytes in 1 μl of the BAL” value ([9]; 1.8 mg/kg intragastric) was 0 ± 0 in 1 μl. The “Macrophages in 1 μl of the BAL” value ([9]; 1.8 mg/kg intragastric) was 3287 ± 381 in 1 μl, the “Neutrophils in 1 μl of the BAL” value ([9]; 1.8 mg/kg intragastric) was 846 ± 101 in 1 μl and the “Influx of inflammatory cells in the bronchoalveolar space” value [10] was “reduced the influx of inflammatory cells in the bronchoalveolar space”. The “Eosinophils in 1 μl of the bronchoalveolar lavage” value ([11]; 0.014 mg/kg intragastric) was 171 ± 32& in 1 μl, the “Leukocytes in 1 μl of the bronchoalveolar lavage” value ([11]; 0.014 mg/kg intragastric) was 2748 ± 174& in 1 μl and the “Lymphocytes in 1 μl of the bronchoalveolar lavage” value ([11]; 0.014 mg/kg intragastric) was 88 ± 29 in 1 μl. The “Macrophages in 1 μl of the bronchoalveolar lavage” value ([11]; 0.014 mg/kg intragastric) was 1805 ± 123#& in 1 μl, the “Neutropils in 1 μl of the bronchoalveolar lavage” value (from here on “Neutropils in 1 μl”) ([11]; 0.014 mg/kg intragastric) was 684 ± 62#& in 1 μl and the “Eosinophils in 1 μl of the bronchoalveolar lavage” value ([11]; 0.14 mg/kg intragastric) was 287 ± 64 in 1 μl. For the same compound, the “Leukocytes in 1 μl of the bronchoalveolar lavage” value ([11]; 0.14 mg/kg intragastric) was 3422 ± 434& in 1 μl, the “Lymphocytes in 1 μl of the bronchoalveolar lavage” value ([11]; 0.14 mg/kg intragastric) was 134 ± 60 in 1 μl and the “Macrophages in 1 μl of the bronchoalveolar lavage” value ([11]; 0.14 mg/kg intragastric) was 2064 ± 313& in 1 μl. The “Neutropils in 1 μl” value ([11]; 0.14 mg/kg intragastric) was 937 ± 141 in 1 μl, the “Eosinophils in 1 μl of the bronchoalveolar lavage” value ([11]; 1.4 mg/kg intragastric) was 245 ± 55 in 1 μl and the “Leukocytes in 1 μl of the bronchoalveolar lavage” value ([11]; 1.4 mg/kg intragastric) was 4149 ± 357#& in 1 μl. The “Lymphocytes in 1 μl of the bronchoalveolar lavage” value ([11]; 1.4 mg/kg intragastric) was 71 ± 29 in 1 μl, the “Macrophages in 1 μl of the bronchoalveolar lavage” value ([11]; 1.4 mg/kg intragastric) was 2820 ± 273& in 1 μl and the “Neutropils in 1 μl” value ([11]; 1.4 mg/kg intragastric) was 931 ± 166 in 1 μl.

In the case of `O=C(NCCc1cnc[nH]1)c1ccc(C(=O)NCCc2cnc[nH]2)cc1` [Compound X, N,N′-bis[2-(1H-imidazol-4-yl)ethyl]terephthalamide], the “Quantity of constrictions for 15 minutes” value [4, 12] was 17.2 ± 3.4.
